In patent US20210380930A1, “METHODS, APPARATUS AND KITS FOR BACTERIAL CELL LYSIS” (TECHNISCHE UNIVERSITÄT WIEN, priority 2018, published 2021):

System: qPCR amplification of a diagnostic fragment of the Enterococcus spp. 23S rRNA gene (DNA plasmid standard)
Details: 762 mM IL; 10^4 DNA target copies

Row | Compound | inhibition of the qPCR amplification
1 | C[N+](C)(C)CCO [[Cho]DBP, Choline dibutylphosphate] | completely inhibited the amplification
2 | CCCCCCn1cc[n+](C)c1.[Cl-] [[C6mim]Cl, 1-Hexyl-3-methylimidazolium chloride, reference compound] | substantially interfered with the reaction
3 | CCCCCC(=O)[O-].C[N+](C)(C)CCO [[Cho]Hex, Choline hexanoate] | completely inhibited the amplification
